Experimental data published in patent US20120021993A1 (AJOU UNIVERSITY INDUSTRY ACADEMIC COOPERATION FOUNDATION, published 2012).

Protein sequences, listed by entry. Tags and fused reporters are not part of them. Chains listed by the source or under a name are the forms on record and can include a tag or linker.
UniProt P01375, other isoform, or with tags, fused parts or gaps limits assumed: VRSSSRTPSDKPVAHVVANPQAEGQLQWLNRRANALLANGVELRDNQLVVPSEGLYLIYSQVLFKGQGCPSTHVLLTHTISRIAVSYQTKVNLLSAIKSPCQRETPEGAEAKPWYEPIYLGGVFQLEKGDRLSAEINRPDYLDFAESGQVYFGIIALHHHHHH

Molecular target: TNFα, extracellular domain (amino acid residue 1-157), 6xHis tag (human, UniProt P01375 57-233)
Experiment: cell-based or functional assay

B1: infliximab (antibody, V domains shown)
VH: EVKLEESGGGLVQPGGSMKLSCVASGFIFSNHWMNWVRQSPEKGLEWVAEIRSKSINSATHYAESVKGRFTISRDDSKSAVYLQMTDLRTEDTGVYYCSRNYYGSTYDYWGQGTTLTVSS
VL: DILLTQSPAILSVSPGERVSFSCRASQFVGSSIHWYQQRTNGSPRLLIKYASESMSGIPSRFSGSGSGTDFTLSINTVESEDIADYYCQQSHSWPFTFGSGTNLEVKR
- IC50 (50% inhibiting concentration) of TNFα-mediated cell death, WEHI 164, MTT assay: ~2 nM
